Measured values published in publication PMC7723054.
The list shows a part of the results.

T1: LIN28A (human?, UniProt Q9H9Z2 1-209)
T1 sequence: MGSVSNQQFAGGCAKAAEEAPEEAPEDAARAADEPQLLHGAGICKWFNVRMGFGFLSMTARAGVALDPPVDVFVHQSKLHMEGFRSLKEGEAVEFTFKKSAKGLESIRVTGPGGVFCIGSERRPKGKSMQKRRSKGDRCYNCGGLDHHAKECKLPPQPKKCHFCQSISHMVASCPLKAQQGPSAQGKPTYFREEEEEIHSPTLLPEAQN

T2: CIRBP (Homo sapiens, UniProt Q14011 1-172)
T2 sequence: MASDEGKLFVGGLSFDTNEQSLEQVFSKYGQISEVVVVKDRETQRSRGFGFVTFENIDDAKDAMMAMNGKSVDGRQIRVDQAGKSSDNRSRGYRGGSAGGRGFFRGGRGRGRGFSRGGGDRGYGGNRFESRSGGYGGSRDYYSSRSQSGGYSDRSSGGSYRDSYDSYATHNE

T3: DHX36 (Homo sapiens, UniProt Q9H2U1 1-1008)
T3 sequence: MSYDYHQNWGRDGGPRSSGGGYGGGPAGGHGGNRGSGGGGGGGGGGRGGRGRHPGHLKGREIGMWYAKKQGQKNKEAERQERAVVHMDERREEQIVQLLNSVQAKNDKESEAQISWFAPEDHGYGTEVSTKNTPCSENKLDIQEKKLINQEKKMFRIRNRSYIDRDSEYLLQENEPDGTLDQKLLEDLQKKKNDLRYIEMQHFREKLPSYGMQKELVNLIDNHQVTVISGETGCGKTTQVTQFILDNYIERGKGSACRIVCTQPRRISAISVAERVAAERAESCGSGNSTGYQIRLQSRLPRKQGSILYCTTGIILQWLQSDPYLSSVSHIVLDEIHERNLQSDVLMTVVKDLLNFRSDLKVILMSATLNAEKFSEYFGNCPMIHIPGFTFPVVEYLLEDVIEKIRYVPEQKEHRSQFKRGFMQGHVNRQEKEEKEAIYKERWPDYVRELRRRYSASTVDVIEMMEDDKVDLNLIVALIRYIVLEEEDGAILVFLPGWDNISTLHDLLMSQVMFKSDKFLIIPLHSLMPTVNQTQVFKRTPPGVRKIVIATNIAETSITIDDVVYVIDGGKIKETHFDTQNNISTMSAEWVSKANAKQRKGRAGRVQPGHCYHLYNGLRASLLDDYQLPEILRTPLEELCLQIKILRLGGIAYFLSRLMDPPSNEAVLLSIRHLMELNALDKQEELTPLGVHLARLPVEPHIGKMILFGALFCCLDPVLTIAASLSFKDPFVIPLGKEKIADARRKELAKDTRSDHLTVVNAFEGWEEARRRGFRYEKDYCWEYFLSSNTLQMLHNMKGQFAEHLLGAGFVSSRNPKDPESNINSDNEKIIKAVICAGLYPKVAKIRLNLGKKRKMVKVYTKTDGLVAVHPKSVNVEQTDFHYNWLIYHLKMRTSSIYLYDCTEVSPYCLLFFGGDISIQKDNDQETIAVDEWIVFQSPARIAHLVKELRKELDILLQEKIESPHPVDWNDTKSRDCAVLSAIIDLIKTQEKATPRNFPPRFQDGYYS

B1: hsa-mir-3156-2 (structured_RNA)
RNA: GGGACAUGCUACGCGCUAACUAUAGUGCGGUGUACGAAGUUUCAGCGGAGACACUUUCACUAUAUAUAGUGGCUCCGCUGAAGCUUCGUGCAC
B2: hsa-mir-491 (structured_RNA)
RNA: GGGAAGGAGAACUGCAUGGAUUUAGCCCGGUGUACGAAGUUUCAGCUGAGGAGUAGAACACUCCUUAGCUGAAGCUUCGUGCAC
B3: hsa-mir-4311 (structured_RNA)
RNA: GGGACAGUGAAAGCGACCGGCAUACUAGGGUGUACGAAGUUUCAGCUGUGACCUGGAGCAGCUCAGGAGGGCUUCCUGGGUGAGGUGGCAGGUUACAGCUGAAGCUUCGUGCAC
B4: hsa-mir-548u (structured_RNA)
RNA: GGGAAACGAACGAAAUCCGGGUCGAGUCGGUGUACGAAGUUUCAGCUUUUUCUUUACUUUUAAUGGCAAAGCUGAAGCUUCGUGCAC
B5: hsa-mir-3651 (structured_RNA)
RNA: GGGAACAGAGCAUGAGGAGUAAAUACAGGGUGUACGAAGUUUCAGCAUGGAGGCUGCUUCUCCUCAGCAGCUGCCAUAGCUGAAGCUUCGUGCAC
B6: hsa-mir-6752 (structured_RNA)
RNA: GGGAAACGACAGUAAUAGCCAAUUCGGCGGUGUACGAAGUUUCAGCUGGAGCCAGGGGGCCCAGGUCUACAGCUUCUCCCCGCUCCCGCUGAAGCUUCGUGCAC
B7: hsa-mir-4674 (structured_RNA)
RNA: GGGACACAAGGAAUGAGCUCUUUUCGUGGGUGUACGAAGUUUCAGCCACGCCGCGCCGCCGGGUCCCUCCUCCCCGGAGAGGCUGGCUGAAGCUUCGUGCAC
B8: G4_(GGGUU)6 (structured_RNA)
RNA: GGGACGCUGUCCUAAGAUGAACAUGCUCGGUGUACGAAGUUUCAGCGGGUUGGGUUGGGUUGGGUUGGGUUGGGUUGCUGAAGCUUCGUGCAC
B9: hsa-mir-93 (structured_RNA)
RNA: GGGAAGAGGCAAGGCACCUACGCUCUACGGUGUACGAAGUUUCAGCAGGUAGUGUGAUUACCCAACCUACUGCUGAAGCUUCGUGCAC
B10: hsa-mir-6715b (structured_RNA)
RNA: GGGAAAAGAAUGGGCAAGUAUGUAACAGGGUGUACGAAGUUUCAGCUGGCAAUUCAGUAAAAAUGCUCAGCUGAAGCUUCGUGCAC
B11: hsa-mir-6885 (structured_RNA)
RNA: GGGAAAGGUCGGAGCCGAAGUUGGAUUUGGUGUACGAAGUUUCAGCAAAGCCAGGGACCCUGAGAGGCUUUGCUGAAGCUUCGUGCAC
B12: hsa-mir-765 (structured_RNA)
RNA: GGGAAGAUCGUGCGAUCAGGUCGAGACAGGUGUACGAAGUUUCAGCAAGCCCUACGAGAAACUGGGGUUUCUGGAGCUGAAGCUUCGUGCAC
B13: hsa-mir-5087 (structured_RNA)
RNA: GGGAAGCCAGGGUAUUAAAUAACGUGUCGGUGUACGAAGUUUCAGCCAUGUUAAGUGUUGUCCUACAGGCUGAAGCUUCGUGCAC
B14: hsa-mir-577 (structured_RNA)
RNA: GGGAACGACGUUGAUAGGCGUUAUCCCCGGUGUACGAAGUUUCAGCCCUGAUGAAUCUGAGGCCAGGGCUGAAGCUUCGUGCAC
B15: hsa-mir-6748 (structured_RNA)
RNA: GGGAAGACAACCGGAUGAACACUUAGUCGGUGUACGAAGUUUCAGCUGGAUUUGAAAUGGUCCCACUCCUGACGAUCCUGCUGAAGCUUCGUGCAC
B16: hsa-mir-1270 (structured_RNA)
RNA: GGGAACUGUGAAUUGACGACUCCGCAGGGGUGUACGAAGUUUCAGCGUGUUGGGUAUAAGUAACAGCUGAAGCUUCGUGCAC
B17: hsa-mir-106a (structured_RNA)
RNA: GGGAGCGGUACUUCCGACCACAUCAGAUGGUGUACGAAGUUUCAGCGCAGGUAGCUUUUUGAGAUCUACUGCGCUGAAGCUUCGUGCAC
B18: hsa-mir-550a-3 (structured_RNA)
RNA: GGGACAAUGGCCCUGAAAACAAGCGCUCGGUGUACGAAGUUUCAGCAGAGUCCUGUUGUUGUAAGAUAGUGUCUGCUGAAGCUUCGUGCAC
B19: hsa-mir-3613 (structured_RNA)
RNA: GGGAGACAAGCAUUAUGUAUAGAGGUCCGGUGUACGAAGUUUCAGCUUGUUCGUUGCAUUUUUAGGAACAAGCUGAAGCUUCGUGCAC
B20: hsa-mir-548h-1 (structured_RNA)
RNA: GGGAAACCGCACUUUUCGAAAUAAGCCUGGUGUACGAAGUUUCAGCUGUCAUUACUUUUAAUGGUAGCUGAAGCUUCGUGCAC
B21: hsa-mir-4759 (structured_RNA)
RNA: GGGAGCGACAAGAGCUUUAAUACAUGCUGGUGUACGAAGUUUCAGCAUUAGACAGAAAAAAGUUAGACACAAAAAAUUGUGUCUAAUGCUGAAGCUUCGUGCAC
B22: hsa-mir-6127 (structured_RNA)
RNA: GGGACCAUUACGUGAGGGAUAUUGGAUCGGUGUACGAAGUUUCAGCGAGGUGGGAAGGCUGCCCCAAAUGGCCUCUAACAUCCCUUCCAGUCUCCUCCUCGCUGAAGCUUCGUGCAC

target: U1A (Homo sapiens, UniProt P09012); assay: FOREST: bead pull-down of RNA structure library v1, barcode microarray; U1A/LIN28A: 20 mM HEPES pH 7.5, 80 mM KCl, 20 mM NaCl, 10% glycerol, 2 mM DTT, 0.1 ug/uL BSA, 4 C; BG4/CIRBP/DHX36: 10 mM Tris-HCl pH 7.5, 100 mM KCl (or LiCl),; high values mean tight binding

Binder | binding signal
B1 | 0.0156 z-score
B2 | 0.0241 z-score
B3 | 0.0275 z-score
B4 | 0.0206 z-score
B5 | 0.0316 z-score
B6 | 0.0283 z-score
B7 | 0.025 z-score
B8 | 1.7 z-score
B9 | 0.0253 z-score
B10 | 0.0255 z-score
B11 | 0.0169 z-score
B12 | 0.0176 z-score
B13 | 0.0229 z-score
B14 | 0.0178 z-score
B15 | 0.0225 z-score
B16 | 0.0158 z-score
B17 | 0.0262 z-score
B18 | 0.0275 z-score
B19 | 1.67 z-score
B20 | 0.0313 z-score
B21 | 0.0189 z-score
B22 | 0.0164 z-score

target: T1, LIN28A; assay: as above

Binder | binding signal
B1 | -0.928 z-score
B2 | -0.231 z-score
B3 | -0.243 z-score
B4 | -1.07 z-score
B5 | 1.83 z-score
B6 | -0.305 z-score
B7 | 0.776 z-score
B8 | 1.43 z-score
B9 | 1.49 z-score
B10 | 1.31 z-score
B11 | 0.844 z-score
B12 | 0.395 z-score
B13 | -0.274 z-score
B14 | 0.561 z-score
B15 | -0.306 z-score
B16 | 0.647 z-score
B17 | -2.03 z-score
B18 | 0.439 z-score
B19 | 0.559 z-score
B20 | -1.64 z-score
B21 | 1.21 z-score
B22 | 1.47 z-score

target: T2, CIRBP; assay: as above

Binder | binding signal
B1 | -0.92 z-score
B2 | -1.32 z-score
B3 | -0.891 z-score
B4 | 1.66 z-score
B5 | 1.83 z-score
B6 | -0.872 z-score
B7 | 0.648 z-score
B8 | 4.07 z-score
B9 | 0.92 z-score
B10 | 2.97 z-score
B11 | 0.351 z-score
B12 | 1.55 z-score
B13 | -0.167 z-score
B14 | 0.134 z-score
B15 | -0.15 z-score
B16 | 0.245 z-score
B17 | -1.48 z-score
B18 | 0.533 z-score
B19 | 0.346 z-score
B20 | -0.296 z-score
B21 | 1.52 z-score
B22 | 0.33 z-score

target: T3, DHX36; assay: as above

Binder | binding signal
B1 | -1.1 z-score
B2 | 1.02 z-score
B3 | 0.224 z-score
B4 | -0.537 z-score
B5 | -0.146 z-score
B6 | 0.447 z-score
B7 | 0.195 z-score
B8 | 7.17 z-score
B9 | 0.687 z-score
B10 | 1.63 z-score
B11 | 0.0253 z-score
B12 | -0.104 z-score
B13 | 0.419 z-score
B14 | -0.284 z-score
B15 | -0.838 z-score
B16 | -1.24 z-score
B17 | -0.746 z-score
B18 | -0.0673 z-score
B19 | 0.102 z-score
B20 | -0.976 z-score
B21 | 0.02 z-score
B22 | 1.08 z-score
